Earlier results as cited in publication PMC5454592, “Pharmacological and Toxicological Properties of the Potent Oral γ-Secretase Modulator BPN-15606” (The Journal of Pharmacology and Experimental Therapeutics, 2017).

Test system: amyloid plaques
Set-up: method as in Sevigny et al., 2016
Conditions: 52-week, 166-patient phase 1b trial, relative to placebo; ref Sevigny et al., 2016; cited from earlier work

**Q.** With “aducanumab: anti-Aβ human monoclonal antibody (Biogen)” as the substance, how does the “amyloid plaques by florbetapir positron emission tomography imaging” value read?
**A.** statistically significant dose-dependent reduction of amyloid plaques

**Q.** And the “cognitive decline (Mini-Mental State Examination and Clinical Dementia Rating)” value?
**A.** statistically significant reduction in cognitive decline
